Assay results published in article PMC7039645 (mAbs, 2020).

Biological target: human epidermal growth factor receptor 2 (Homo sapiens, UniProt P04626)
Experiment: SPR

B1: hu4D5 Fab (Fab, V domains shown)
VH: [about 120 residues not written out]
VL: DIQMTQSPSSLSASVGDRVTITCRASQDVNTAVAWYQQKPGKAPKLLIYSASFLYSGVPSRFSGSRSGTDFTLTISSLQPEDFATYYCQQHYTTPPTFGQGTKVEIK
- Kd: 0.13 nM
- koff: 0.00011 s⁻¹
- kon: 720000 M⁻¹ s⁻¹
